Patent US7851505B2, “Thiotungstate analogues and uses thereof” (priority 2003, dated 2010)

Experiment: Moisture stability of tetrathiotungstate salts
Format: physicochemical
Conditions: room temperature, 95% relative humidity, two weeks; purity by absorbance; * = partially soluble; ‡ = average of 2 data points

| Substance | % degradation |
| --- | --- |
| Tetrathiotungstate, pentane-1,5-bis(trimethylammonium) | 19.8* % |
| Tetrathiotungstate, propane-1,3-bis(trimethylammonium) | 23.8* % |
| Tetrathiotungstate, butane-1,4-bis(trimethylammonium) | 5.7* % |
